Earlier results, collected in US8975279B2, “Amine salts of laquinimod” (Teva Pharmaceutical Industries, Ltd., priority 2012, dated 2015).
Counter-ions that a name gives are not always drawn.

Details: pH not given; cited from earlier work

For `Oc1cc(Cl)ccc1Oc1ccc(Cl)cc1Cl` [triclosan sodium salt], the solubility is given as 5950 µg/mL.
